The text below walks through data of patent US9364496B2, “Custirsen treatment with reduced toxicity” (ONCOGENEX TECHNOLOGIES INC., priority 2013, dated 2016).

Data set [1] relates to RPMI 8226 (human myeloma) xenograft. The data set is described as follows: In vivo activity of custirsen with Velcade, RPMI 8226 xenograft (Example 14). The procedure: The cells were implanted subcutaneously into female SCID mice with 7×10^6 cells inoculum.
Tumors and body weights were measured weekly until termination of the study on day 71. Response to treatment was evaluated for tumor growth inhibition (TGI) and tumor growth delay (TGD).
70 CB.17 SCID female mice, 4-6 weeks old, 16-20 grams, obtained from Harlan animal breeding center.
Sample from the cell suspension was taken for counting (0.3 ml in duplicates for CEDEX) before spun down. Cell viability was 85.6% and live cell concentration was 167×10^5 cells/ml. The pellet was resuspended in HBSS to a final volume of 8 ml.
Tumors were implanted subcutaneously with RPMI-8226 cells into the right flank of the mouse on Day 0. Each animal received a s.c. injection 7×10^6 cells in 0.1 ml suspension. On day 20, mice were sorted by the optimal tumor volume ([…]) and were allocated into 5 groups of 10 mice. Mice were individually tagged and their tumor volume and body weight were monitored weekly during the study. Tumor size was measured by caliper and calculated using the formula: […]
The treatment started on […] (0.2 ml per 20 grams v/w) and continued till day 52, after which the remaining mice were left for observation until day 71.

Data set [2] shares this test system. The data set is described as follows: In vivo activity of custirsen (TV-1011), different doses and regimens with Bortezomib, RPMI 8226 xenograft (Example 15). The conditions noted are these: group 8: TV-1011 30 mg/kg qd*5, 40 mg/kg biwk, individual animals. The procedure:
120 CB.17 SCID female mice, 4-6 weeks old, 16-20 grams, obtained from Harlan animal breeding center.
Cells (originated from ATCC) were cultured on RPMI medium. Cell suspension was centrifuged and resuspended in 50% Matrigel/HBSS to a final concentration of 7×10^7 cells/ml. The suspension was implanted s.c. in the right flank of the anesthetized mouse at a volume of 100 μl.
Seven ml saline were added to the original vial containing 3.5 mg powder resulting in 0.5 mg/ml. Three ml of this solution were added to 27 ml saline to receive 0.05 mg/ml concentration. […] 28.5 ml of 4 mg/ml were added to 9.5 saline to receive 3 mg/ml.
Mice were implanted subcutaneously, with 7×10^6 RPMI 8226 cells/mouse (in 50% Martigel/HBSS) on Day 0. On day 21, mice were sorted by the optimal average tumor volume (˜130 mm3) and were allocated into eight groups of 10 mice each.
The treatment started on day 21 post implant, 0.2 ml per 20 grams v/w.
[formula] The analysis of weight gain and tumor volume progression was made using one-way ANOVA followed by Tukey post-hoc comparisons.

Setting [3] is: OGX 40 ip qd*5, twk, individual mouse, listed as OGX.

Values joined by “and” are separate entries in the source; they are usually repeats but may differ in a detail not shown here. Equal entries are not always repeated. Oligonucleotides are written 5' to 3', each unit as a sugar letter and its base; * is a phosphorothioate linkage, no mark a phosphodiester; rarer units and linkages stand in square brackets, end groups in braces. Plain capitals give the bases only. e = 2'-O-(2-methoxyethyl) (MOE); [5mC] = 5-methylcytosine; d = 2'-deoxy (DNA)

For `CC(C)C[C@H](NC(=O)[C@H](Cc1ccccc1)NC(=O)c1cnccn1)B(O)O` [Velcade®, Bortezomib, reference compound], the Δ volume in data set [1] (Velcade 0.5 mg/kg iv biwk, earlier day (day not given), individual mouse, tumor) is given as 575.7. Moreover, the “Day 20 volume” value in data set [1] (Velcade 0.5 mg/kg iv biwk, individual mouse) worked out at 123. For the same compound, in data set [1] (Velcade 0.5 mg/kg iv biwk, individual mouse, vs Day 20), the “Day 34 Δ volume” value came to 123.0.
Take “Custirsen: anti-clusterin antisense oligonucleotide CAGCAGCAGAGTCTTCATCAT, phosphorothioate backbone, 2′-O-methoxyethyl at nucleotides 1-4 and 18-21, 5-methylcytosines at 1, 4, 19 (antisense e[5mC]*eA*eG*e[5mC]*dA*dG*dC*dA*dG*dA*dG*dT*dC*dT*dT*dC*dA*eT*e[5mC]*eA*eT; listed as Homo sapiens)”: the “% of baseline (weight)” value in data set [2] (Day 28) is 104.4%; in data set [1] (OGX 40 ip qd*5, twk, Day 48, group mean) it was 105.3%; in data set [1] (OGX 40 ip qd*5, twk, Day 48, individual mice, listed as OGX), 104.2%; in data set [1] (OGX 40 ip qd*5, twk, Day 51, group mean) it was 105.3%; in data set [1] (OGX 40 ip qd*5, twk, Day 51, individual mice, listed as OGX) it was 105.4% and 104.2% and 105.1%; in data set [1] (OGX 40 ip qd*5, twk, Day 63, individual mice, listed as OGX) it was 104.7%. In data set [2] (Day 41 vs Day 21), the “Δ % (weight)” value was determined as 12.3%. Besides, the “% of baseline” value in data set [1] (OGX 40 ip qd*5, twk, earlier day (day not given), individual mouse, weight, listed as OGX) was 105.5% and 104.8% and 106.0%. Moreover, the “Day 45 % of baseline (weight)” value in data set [1] (OGX 40 ip qd*5, twk, group Mean, n 9) is 105.6%; in data set [1] (setting [3]), 105.6% and 101.3% and 106.1%. For the same compound, in data set [1] (setting [3]), the “Day 27 % of baseline (weight)” value is 104.8% and 101.1% and 100.8%. Further, the “Day 41 % of baseline (weight)” value in data set [1] (setting [3]) is 105.9% and 106.0%.
